# Measured values published in US8959984B2, “Proteome-wide quantification of small molecule binding to cellular target proteins” (priority 2007, dated 2015).
# Sequences of proteins named here, by UniProt entry; tags and fusion partners are left off. A change or cut given only in a name is not applied to a line headed by its entry.
# UniProt Q32MK0: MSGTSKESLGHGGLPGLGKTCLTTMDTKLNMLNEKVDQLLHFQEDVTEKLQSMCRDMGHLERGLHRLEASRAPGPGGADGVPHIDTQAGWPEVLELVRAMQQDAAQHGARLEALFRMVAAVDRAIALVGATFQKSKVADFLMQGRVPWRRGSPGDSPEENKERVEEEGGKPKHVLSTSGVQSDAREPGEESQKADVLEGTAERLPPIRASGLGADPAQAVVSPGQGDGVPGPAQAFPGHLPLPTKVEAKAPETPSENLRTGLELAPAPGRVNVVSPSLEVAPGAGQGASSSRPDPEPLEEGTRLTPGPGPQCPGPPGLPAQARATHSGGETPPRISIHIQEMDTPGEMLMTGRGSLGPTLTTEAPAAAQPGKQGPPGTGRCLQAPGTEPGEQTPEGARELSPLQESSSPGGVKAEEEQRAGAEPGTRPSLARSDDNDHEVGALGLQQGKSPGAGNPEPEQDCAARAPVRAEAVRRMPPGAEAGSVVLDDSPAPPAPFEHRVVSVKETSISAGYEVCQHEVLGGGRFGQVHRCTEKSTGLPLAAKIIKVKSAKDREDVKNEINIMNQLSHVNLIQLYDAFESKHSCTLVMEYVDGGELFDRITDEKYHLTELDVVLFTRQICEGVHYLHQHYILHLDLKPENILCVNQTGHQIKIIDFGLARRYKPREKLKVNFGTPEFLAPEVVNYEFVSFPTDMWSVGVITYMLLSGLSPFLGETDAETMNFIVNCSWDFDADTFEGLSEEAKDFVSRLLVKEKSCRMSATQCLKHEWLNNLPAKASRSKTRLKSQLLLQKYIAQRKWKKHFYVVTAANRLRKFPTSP
# UniProt P68400, whole entry: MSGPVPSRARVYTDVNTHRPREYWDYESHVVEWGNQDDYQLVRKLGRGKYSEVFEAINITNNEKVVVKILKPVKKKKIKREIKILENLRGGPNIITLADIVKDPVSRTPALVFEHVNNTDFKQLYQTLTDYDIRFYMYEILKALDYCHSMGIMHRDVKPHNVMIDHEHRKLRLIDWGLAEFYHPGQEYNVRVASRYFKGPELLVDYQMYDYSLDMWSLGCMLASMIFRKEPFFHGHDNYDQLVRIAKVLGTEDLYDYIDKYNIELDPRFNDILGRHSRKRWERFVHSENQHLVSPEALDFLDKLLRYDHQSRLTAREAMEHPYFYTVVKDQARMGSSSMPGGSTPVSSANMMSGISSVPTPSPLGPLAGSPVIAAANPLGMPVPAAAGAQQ
# UniProt Q9NSY1, whole entry: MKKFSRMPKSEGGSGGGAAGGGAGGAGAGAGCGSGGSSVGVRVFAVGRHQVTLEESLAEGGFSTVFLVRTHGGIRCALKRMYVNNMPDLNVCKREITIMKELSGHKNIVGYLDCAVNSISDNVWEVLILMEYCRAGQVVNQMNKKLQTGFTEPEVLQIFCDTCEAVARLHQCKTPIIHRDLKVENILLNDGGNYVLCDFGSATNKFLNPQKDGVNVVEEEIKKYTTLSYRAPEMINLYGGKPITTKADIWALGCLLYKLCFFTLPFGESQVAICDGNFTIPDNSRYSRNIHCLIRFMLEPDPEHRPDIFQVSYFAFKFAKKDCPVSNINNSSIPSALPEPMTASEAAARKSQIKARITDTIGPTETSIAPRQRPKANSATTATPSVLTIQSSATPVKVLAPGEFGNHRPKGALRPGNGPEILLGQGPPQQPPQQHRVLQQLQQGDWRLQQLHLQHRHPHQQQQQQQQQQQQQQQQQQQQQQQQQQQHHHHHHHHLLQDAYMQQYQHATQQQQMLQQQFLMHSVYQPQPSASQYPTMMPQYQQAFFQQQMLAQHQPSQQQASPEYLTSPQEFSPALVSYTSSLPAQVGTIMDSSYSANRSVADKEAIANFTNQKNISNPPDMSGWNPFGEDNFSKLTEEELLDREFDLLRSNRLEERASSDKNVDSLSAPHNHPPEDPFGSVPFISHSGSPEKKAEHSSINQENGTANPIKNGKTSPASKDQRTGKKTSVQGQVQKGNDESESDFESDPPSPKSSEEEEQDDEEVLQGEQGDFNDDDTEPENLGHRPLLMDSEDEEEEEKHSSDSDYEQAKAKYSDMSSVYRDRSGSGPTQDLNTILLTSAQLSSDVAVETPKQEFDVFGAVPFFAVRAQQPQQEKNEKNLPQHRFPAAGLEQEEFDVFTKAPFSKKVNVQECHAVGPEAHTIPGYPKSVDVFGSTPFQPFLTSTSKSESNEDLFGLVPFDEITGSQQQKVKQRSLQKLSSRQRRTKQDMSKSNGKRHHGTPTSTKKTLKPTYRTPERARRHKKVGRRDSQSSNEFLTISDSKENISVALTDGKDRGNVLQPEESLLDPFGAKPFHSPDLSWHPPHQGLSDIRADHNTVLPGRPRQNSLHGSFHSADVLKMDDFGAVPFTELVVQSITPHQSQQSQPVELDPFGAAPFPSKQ
# UniProt P78356: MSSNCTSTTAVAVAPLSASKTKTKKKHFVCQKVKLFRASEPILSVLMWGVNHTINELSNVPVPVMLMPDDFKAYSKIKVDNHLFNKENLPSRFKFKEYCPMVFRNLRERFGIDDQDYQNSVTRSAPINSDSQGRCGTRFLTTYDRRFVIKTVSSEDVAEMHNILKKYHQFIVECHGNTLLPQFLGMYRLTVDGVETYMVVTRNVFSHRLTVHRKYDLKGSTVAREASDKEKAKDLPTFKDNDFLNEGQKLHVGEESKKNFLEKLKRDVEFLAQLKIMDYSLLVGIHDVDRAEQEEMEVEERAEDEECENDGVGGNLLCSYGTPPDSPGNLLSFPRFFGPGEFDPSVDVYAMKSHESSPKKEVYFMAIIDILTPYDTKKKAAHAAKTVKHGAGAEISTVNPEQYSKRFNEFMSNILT
# UniProt P00519, whole entry: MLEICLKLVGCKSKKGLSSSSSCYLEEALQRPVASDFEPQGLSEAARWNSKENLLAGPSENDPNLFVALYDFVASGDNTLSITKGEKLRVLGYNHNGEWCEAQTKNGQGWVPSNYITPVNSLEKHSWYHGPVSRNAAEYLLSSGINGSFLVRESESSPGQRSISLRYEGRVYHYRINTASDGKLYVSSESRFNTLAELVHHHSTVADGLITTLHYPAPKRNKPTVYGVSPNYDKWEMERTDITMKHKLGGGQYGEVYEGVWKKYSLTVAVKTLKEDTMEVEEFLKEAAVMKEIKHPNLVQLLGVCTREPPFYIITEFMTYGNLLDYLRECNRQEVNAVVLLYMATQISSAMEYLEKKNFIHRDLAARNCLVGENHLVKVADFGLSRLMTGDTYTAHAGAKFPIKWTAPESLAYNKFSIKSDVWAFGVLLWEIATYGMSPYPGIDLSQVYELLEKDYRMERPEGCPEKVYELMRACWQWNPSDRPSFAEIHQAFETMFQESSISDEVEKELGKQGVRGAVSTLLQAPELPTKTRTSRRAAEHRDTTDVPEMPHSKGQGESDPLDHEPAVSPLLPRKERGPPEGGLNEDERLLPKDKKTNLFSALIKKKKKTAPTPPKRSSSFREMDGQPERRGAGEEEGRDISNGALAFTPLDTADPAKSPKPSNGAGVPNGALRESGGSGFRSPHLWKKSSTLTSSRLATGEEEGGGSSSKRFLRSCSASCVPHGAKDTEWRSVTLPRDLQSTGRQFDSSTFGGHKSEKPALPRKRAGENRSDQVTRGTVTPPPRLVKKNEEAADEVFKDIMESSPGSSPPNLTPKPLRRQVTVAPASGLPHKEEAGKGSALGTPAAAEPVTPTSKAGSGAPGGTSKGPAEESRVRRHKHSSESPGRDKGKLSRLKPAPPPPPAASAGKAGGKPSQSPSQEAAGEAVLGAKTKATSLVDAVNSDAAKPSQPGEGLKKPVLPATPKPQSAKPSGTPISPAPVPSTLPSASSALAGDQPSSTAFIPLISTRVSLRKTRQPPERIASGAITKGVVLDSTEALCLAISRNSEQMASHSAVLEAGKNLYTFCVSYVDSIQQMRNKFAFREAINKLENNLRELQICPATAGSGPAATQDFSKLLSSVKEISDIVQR
# UniProt Q13188: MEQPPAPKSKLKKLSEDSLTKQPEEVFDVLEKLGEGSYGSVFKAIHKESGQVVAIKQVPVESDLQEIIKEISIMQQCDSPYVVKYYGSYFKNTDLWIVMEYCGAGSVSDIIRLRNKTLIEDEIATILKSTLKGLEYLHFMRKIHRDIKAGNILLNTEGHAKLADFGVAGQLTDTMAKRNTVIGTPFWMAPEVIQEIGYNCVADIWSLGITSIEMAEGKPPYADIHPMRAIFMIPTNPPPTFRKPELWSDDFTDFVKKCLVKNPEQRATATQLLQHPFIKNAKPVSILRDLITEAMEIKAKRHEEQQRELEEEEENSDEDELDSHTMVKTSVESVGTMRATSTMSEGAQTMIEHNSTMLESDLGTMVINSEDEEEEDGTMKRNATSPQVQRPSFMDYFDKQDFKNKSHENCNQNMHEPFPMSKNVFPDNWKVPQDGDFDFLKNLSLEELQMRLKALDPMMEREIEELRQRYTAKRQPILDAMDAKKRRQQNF
# UniProt P24863: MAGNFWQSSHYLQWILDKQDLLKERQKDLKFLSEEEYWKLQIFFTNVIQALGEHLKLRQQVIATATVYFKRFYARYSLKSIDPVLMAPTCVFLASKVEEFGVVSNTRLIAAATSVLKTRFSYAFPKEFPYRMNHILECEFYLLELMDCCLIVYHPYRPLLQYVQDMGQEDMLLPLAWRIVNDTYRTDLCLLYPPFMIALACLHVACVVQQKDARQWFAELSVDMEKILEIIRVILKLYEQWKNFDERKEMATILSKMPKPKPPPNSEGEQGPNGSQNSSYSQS
# UniProt O75716, whole entry: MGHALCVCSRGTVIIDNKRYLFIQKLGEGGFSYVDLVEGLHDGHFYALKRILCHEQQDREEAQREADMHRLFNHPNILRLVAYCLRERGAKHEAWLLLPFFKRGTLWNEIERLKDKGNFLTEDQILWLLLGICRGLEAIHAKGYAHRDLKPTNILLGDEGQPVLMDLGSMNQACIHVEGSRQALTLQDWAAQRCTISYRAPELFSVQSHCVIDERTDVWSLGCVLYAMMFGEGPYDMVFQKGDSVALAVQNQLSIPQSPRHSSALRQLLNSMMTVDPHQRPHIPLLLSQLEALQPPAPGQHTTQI
# UniProt P53671: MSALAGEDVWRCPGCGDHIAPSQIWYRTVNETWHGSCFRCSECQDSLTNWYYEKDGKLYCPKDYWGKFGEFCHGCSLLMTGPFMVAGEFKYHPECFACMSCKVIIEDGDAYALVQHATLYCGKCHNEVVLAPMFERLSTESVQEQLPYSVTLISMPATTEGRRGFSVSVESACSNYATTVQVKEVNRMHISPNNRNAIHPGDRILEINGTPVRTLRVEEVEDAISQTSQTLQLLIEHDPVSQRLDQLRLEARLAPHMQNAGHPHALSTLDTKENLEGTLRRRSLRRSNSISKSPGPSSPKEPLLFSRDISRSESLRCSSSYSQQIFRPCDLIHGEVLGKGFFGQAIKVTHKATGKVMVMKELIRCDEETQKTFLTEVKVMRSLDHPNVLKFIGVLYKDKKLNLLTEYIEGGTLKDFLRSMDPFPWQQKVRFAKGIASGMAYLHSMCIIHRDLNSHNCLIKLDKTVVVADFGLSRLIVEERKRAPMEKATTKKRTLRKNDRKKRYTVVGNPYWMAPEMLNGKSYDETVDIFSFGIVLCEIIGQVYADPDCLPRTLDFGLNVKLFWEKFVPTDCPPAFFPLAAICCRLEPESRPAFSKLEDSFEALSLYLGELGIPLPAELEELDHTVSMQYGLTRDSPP
# UniProt Q96GD4, whole entry: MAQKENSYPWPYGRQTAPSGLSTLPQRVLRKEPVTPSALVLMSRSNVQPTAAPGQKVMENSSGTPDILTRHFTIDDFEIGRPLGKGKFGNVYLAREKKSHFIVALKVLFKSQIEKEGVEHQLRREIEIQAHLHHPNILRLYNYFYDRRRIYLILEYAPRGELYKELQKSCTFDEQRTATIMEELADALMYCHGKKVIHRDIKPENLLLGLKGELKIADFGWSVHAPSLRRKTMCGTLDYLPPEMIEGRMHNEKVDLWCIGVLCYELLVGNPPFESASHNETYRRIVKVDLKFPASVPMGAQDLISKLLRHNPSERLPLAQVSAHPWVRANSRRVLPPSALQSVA
# UniProt P50053: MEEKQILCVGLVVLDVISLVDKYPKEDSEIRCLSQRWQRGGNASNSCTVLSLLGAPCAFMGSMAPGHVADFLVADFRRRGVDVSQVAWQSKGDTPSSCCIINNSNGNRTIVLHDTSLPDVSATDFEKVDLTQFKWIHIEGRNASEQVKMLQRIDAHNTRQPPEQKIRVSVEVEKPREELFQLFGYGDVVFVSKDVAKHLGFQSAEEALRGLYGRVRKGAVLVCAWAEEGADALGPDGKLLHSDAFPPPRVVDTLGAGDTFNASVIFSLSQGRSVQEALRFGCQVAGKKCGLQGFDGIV
# Tests used:
# Experiment in all cases: Ki determination for immobilized VI16742: two consecutive incubations, control beads, ligand concentration and incubation time controls (Tables 7, 8)
# Assay type in all cases: binding
# [1] = target: cellular target proteins in HeLa cell lysate (Homo sapiens, UniProt Q32MK0)
# [2] = target: cellular target proteins in HeLa cell lysate (Homo sapiens, UniProt P27361)
# [3] = target: cellular target proteins in HeLa cell lysate (Homo sapiens, UniProt P68400); settings: Ki (VI16742), CK2a1 (CSNK2A1) IPI00016613
# [4] = target: cellular target proteins in HeLa cell lysate (Homo sapiens, UniProt Q9NSY1); settings: Ki (VI16742), BIKE (BMP2K) IPI00337426
# [5] = target: cellular target proteins in HeLa cell lysate (Homo sapiens, UniProt P78356); settings: Ki (VI16742), PIP4K2B IPI00216470
# [6] = target: cellular target proteins in HeLa cell lysate (Homo sapiens, UniProt P00519); settings: Ki (VI16742), ABL (ABL1) IPI00221171
# [7] = target: cellular target proteins in HeLa cell lysate (Homo sapiens, UniProt Q13188); settings: Ki (VI16742), MST2 (STK3) IPI00411984
# [8] = target: cellular target proteins in HeLa cell lysate (Homo sapiens, UniProt P24863); settings: Ki (VI16742), CCNC IPI00031076
# [9] = target: cellular target proteins in HeLa cell lysate (Homo sapiens, UniProt O75716); settings: Ki (VI16742), MPSK1 (STK16) IPI00306833
# [10] = target: cellular target proteins in HeLa cell lysate (Homo sapiens, UniProt P53671); settings: Ki (VI16742), LIMK2 IPI00022872
# [11] = target: T1, cellular target proteins in HeLa cell lysate (Homo sapiens, UniProt Q9Y478); settings: Ki (VI16742), PRKAB1 IPI00220409
# T1 sequence (Q9Y478 1-270): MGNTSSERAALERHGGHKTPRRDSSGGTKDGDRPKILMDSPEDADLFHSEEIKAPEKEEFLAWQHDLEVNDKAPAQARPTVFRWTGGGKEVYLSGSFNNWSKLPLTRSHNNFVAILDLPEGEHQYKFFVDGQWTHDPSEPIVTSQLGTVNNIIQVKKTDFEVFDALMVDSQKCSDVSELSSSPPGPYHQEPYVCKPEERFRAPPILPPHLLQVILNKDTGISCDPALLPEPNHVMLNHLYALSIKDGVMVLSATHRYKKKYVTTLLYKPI
# [12] = target: cellular target proteins in HeLa cell lysate (Homo sapiens, UniProt Q96GD4); settings: Ki (VI16742), AurB (AURKB) IPI00176642
# [13] = target: cellular target proteins in HeLa cell lysate (Homo sapiens, UniProt P50053); settings: Ki (VI16742), KHK IPI00029488
smiles,measurement,setting,value
CC(C)n1c(=O)ccc2cnc(Nc3ccc(OCCN)cc3)nc21 [V16742],Ki,[1],3.66 µM
same,Ki,[2],42.9 µM
same,Ki,[3],21.7 µM
same,Ki,[4],9.92 µM
same,Ki,[5],39.3 µM
same,Ki,[6],72.6 µM
same,Ki,[7],46.6 µM
same,Ki,[8],57 µM
same,Ki,[9],7.45 µM
same,Ki,[10],10.8 µM
same,Ki,[11],18.5 µM
same,Ki,[12],8.59 µM
same,Ki,[13],25.7 µM
